By UniProt entry, the sequences of proteins in these tests, tags left out. Where a name states a change or a piece, a line headed by the entry shows the natural chain unless it says otherwise. Residues count along the entry.
UniProt Q8IW41: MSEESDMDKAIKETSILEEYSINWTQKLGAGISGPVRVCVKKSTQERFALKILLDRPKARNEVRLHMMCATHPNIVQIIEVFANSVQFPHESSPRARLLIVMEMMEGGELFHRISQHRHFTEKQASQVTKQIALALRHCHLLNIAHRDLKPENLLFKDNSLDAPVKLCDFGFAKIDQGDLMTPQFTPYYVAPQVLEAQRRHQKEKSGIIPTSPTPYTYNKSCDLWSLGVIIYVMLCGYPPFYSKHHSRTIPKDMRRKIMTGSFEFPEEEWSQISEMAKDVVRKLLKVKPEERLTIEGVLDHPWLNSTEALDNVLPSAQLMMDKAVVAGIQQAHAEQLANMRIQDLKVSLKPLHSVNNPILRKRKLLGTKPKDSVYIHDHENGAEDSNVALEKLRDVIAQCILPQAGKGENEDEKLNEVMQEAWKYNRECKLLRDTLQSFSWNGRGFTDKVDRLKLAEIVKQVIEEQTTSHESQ
UniProt P52333: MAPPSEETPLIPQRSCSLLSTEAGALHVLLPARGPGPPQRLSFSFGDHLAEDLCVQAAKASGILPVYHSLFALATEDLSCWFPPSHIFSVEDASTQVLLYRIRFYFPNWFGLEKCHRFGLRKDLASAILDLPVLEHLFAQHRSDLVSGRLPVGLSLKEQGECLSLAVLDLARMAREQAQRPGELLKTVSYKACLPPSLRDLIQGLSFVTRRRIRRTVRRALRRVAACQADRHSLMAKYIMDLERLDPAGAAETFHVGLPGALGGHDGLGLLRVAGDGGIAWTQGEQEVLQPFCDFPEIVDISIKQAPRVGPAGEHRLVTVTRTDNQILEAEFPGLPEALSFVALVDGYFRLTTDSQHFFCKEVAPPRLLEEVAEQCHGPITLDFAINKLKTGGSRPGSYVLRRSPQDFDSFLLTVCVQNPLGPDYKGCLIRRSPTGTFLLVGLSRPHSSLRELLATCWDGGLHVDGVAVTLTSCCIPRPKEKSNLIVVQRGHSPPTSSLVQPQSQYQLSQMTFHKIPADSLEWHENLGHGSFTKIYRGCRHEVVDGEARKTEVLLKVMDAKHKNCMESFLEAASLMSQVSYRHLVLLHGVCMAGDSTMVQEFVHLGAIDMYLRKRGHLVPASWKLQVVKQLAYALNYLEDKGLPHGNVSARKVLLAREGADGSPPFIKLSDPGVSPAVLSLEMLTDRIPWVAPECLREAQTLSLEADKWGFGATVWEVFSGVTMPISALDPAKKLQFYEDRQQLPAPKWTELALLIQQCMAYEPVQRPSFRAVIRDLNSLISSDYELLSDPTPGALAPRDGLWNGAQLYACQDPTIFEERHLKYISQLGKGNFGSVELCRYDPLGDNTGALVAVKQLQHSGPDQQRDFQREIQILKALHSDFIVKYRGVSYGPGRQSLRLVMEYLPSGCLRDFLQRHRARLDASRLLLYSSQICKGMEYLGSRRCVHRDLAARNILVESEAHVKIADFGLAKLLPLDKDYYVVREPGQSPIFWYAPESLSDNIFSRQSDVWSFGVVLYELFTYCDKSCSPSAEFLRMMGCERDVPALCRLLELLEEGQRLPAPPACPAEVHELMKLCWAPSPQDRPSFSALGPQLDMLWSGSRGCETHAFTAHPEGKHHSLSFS
UniProt P17948, 27-1338: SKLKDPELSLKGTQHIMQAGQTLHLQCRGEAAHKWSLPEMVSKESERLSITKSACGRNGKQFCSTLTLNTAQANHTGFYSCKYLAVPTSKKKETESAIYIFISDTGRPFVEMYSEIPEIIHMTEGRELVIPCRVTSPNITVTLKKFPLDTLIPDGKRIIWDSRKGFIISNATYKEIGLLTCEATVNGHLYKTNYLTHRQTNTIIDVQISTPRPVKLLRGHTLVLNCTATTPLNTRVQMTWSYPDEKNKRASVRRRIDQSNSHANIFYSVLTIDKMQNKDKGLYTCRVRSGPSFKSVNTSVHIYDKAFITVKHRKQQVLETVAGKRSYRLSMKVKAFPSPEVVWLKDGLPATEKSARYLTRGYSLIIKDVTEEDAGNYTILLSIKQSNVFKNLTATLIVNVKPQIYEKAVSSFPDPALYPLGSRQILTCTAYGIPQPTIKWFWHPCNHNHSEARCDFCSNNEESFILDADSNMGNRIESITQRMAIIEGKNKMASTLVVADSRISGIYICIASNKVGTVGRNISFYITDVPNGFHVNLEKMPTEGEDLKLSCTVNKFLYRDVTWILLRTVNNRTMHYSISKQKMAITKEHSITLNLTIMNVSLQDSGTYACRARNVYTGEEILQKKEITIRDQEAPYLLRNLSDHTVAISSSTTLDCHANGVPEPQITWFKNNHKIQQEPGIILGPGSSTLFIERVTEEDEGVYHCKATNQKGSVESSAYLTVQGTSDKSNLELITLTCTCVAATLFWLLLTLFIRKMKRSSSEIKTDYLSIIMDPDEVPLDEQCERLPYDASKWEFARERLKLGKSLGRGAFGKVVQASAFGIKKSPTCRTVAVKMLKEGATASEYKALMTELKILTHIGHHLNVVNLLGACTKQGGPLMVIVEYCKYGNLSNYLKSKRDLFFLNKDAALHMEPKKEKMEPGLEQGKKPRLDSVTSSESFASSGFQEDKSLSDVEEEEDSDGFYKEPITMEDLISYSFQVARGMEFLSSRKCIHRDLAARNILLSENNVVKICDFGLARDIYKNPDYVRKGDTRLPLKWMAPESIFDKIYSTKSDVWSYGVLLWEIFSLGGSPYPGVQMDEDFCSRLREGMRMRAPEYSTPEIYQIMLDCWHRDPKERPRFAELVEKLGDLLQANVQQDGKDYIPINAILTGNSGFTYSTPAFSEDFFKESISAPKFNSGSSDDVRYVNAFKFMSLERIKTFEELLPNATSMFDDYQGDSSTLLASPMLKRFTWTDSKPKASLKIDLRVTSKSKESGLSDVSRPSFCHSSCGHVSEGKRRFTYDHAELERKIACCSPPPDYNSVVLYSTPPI
UniProt P48729: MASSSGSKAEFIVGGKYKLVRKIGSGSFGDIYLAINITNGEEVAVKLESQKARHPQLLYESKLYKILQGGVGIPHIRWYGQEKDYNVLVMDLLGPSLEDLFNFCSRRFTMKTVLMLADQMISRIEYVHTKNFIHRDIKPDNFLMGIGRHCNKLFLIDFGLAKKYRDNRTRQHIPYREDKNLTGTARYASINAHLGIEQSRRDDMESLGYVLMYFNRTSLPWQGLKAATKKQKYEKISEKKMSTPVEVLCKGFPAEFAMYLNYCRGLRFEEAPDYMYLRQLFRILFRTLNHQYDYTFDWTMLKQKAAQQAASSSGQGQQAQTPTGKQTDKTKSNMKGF
UniProt Q00535, whole entry: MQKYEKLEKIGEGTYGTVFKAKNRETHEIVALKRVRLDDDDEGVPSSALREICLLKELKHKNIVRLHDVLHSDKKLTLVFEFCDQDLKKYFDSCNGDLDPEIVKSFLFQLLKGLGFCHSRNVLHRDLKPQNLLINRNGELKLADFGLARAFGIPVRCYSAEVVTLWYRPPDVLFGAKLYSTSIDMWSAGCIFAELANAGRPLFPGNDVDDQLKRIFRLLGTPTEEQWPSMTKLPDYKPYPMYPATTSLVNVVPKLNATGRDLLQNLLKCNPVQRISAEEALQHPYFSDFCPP
UniProt Q8N5S9: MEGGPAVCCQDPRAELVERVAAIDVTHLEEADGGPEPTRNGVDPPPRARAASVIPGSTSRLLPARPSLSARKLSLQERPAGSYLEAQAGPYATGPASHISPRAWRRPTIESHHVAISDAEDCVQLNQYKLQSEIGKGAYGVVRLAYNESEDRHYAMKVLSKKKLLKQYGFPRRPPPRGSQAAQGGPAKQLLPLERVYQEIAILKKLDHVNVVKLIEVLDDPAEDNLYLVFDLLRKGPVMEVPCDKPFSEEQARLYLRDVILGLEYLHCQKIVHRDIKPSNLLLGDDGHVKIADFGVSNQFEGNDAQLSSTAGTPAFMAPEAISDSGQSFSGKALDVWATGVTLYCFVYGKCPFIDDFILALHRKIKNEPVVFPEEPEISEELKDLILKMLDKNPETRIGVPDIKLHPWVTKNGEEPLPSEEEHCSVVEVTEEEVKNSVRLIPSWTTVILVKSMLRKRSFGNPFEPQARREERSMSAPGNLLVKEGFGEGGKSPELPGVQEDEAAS
UniProt Q04771, 21-509: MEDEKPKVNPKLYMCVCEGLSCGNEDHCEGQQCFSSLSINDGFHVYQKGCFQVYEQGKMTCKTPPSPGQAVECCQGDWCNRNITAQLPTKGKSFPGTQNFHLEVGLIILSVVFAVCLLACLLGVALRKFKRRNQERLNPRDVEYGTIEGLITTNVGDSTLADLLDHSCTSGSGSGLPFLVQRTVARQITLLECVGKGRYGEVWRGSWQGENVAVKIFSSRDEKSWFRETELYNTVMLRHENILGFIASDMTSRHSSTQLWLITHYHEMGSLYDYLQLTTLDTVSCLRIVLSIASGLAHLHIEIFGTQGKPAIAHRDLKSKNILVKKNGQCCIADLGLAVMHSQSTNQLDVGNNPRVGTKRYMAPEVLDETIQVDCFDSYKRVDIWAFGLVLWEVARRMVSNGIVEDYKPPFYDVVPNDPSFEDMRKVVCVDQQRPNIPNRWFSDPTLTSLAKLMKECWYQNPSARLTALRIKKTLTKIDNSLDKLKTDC
UniProt Q8TBX8: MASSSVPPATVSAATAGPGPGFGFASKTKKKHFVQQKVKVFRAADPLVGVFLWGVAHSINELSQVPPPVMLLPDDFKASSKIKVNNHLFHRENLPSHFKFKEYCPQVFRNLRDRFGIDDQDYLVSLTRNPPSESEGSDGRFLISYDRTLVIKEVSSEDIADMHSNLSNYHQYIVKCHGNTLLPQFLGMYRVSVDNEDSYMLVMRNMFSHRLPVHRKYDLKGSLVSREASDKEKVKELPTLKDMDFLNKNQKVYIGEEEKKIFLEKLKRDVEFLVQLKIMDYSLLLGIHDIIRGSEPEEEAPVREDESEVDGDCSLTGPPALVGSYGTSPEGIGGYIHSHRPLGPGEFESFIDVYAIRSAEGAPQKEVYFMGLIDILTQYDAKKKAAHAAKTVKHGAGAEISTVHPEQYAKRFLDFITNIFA
UniProt P31751: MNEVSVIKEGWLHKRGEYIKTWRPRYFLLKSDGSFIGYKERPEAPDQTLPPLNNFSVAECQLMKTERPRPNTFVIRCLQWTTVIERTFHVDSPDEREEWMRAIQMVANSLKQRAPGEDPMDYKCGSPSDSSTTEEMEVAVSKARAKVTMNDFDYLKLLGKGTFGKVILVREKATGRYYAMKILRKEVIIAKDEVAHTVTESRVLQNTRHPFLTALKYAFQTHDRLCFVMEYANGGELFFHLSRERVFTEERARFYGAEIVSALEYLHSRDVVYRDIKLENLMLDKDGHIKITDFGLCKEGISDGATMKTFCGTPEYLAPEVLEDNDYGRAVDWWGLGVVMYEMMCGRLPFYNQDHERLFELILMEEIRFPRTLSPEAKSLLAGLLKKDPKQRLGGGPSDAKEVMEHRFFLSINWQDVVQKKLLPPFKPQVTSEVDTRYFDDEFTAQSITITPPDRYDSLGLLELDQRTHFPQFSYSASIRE
UniProt O14920: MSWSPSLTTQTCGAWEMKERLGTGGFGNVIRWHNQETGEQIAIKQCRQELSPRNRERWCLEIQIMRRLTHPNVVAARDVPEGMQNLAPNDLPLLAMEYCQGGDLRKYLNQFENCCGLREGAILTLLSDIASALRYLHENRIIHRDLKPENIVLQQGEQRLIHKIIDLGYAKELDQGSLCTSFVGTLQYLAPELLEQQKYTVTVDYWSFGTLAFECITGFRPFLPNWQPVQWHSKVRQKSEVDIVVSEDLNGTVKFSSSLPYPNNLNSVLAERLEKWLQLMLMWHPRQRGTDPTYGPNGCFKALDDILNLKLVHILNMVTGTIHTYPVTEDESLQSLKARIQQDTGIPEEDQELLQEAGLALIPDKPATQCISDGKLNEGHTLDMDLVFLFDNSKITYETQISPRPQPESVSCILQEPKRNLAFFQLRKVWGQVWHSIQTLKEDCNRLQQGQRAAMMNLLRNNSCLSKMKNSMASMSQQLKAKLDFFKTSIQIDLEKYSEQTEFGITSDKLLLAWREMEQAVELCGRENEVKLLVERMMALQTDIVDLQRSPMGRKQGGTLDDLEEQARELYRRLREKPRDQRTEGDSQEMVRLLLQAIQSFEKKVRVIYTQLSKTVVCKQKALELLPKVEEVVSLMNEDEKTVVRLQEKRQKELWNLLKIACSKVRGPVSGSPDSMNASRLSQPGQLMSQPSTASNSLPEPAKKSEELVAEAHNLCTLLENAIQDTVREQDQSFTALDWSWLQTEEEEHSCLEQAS

In article PMC3914206:

Legend:
Format in all cases: binding
Settings in all cases: Compound Concentration 10 µM
panel of 442 kinases [1] = target: T1, panel of 442 kinases (Homo sapiens, UniProt Q8IW41)
T1 construct: purchased KINOMEscan
Source text: (§1) We assessed the selectivity of members of this scaffold using the KINOMEscan methodology across a near comprehensive panel of 442 kinases [[18,27]].

panel of 442 kinases [2] = target: T2, panel of 442 kinases (Homo sapiens, UniProt P52333)
T2 construct: purchased KINOMEscan
Source text: as §1

panel of 442 kinases [3] = target: T3, panel of 442 kinases (Homo sapiens, UniProt Q9Y5S2)
T3 construct: purchased KINOMEscan
Source text: as §1

panel of 442 kinases [4] = target: T4, panel of 442 kinases (Homo sapiens, UniProt Q15831)
T4 construct: purchased KINOMEscan
Source text: as §1

panel of 442 kinases [5] = target: T5, panel of 442 kinases (Homo sapiens, UniProt P04626)
T5 construct: purchased KINOMEscan
Source text: as §1

panel of 442 kinases [6] = target: T6, panel of 442 kinases (Homo sapiens, UniProt P17948)
T6 construct: purchased KINOMEscan
Source text: as §1

panel of 442 kinases [7] = target: T7, panel of 442 kinases (Homo sapiens, UniProt P48729)
T7 construct: purchased KINOMEscan
Source text: as §1

panel of 442 kinases [8] = target: T8, panel of 442 kinases (Homo sapiens, UniProt Q12866)
T8 construct: purchased KINOMEscan
Source text: as §1

panel of 442 kinases [9] = target: T9, panel of 442 kinases (Homo sapiens, UniProt P06239)
T9 construct: purchased KINOMEscan
Source text: as §1

panel of 442 kinases [10] = target: T10, panel of 442 kinases (Homo sapiens, UniProt Q13177)
T10 construct: purchased KINOMEscan
Source text: as §1

panel of 442 kinases [11] = target: T11, panel of 442 kinases (Homo sapiens, UniProt P42336, E542K)
T11 construct: purchased KINOMEscan
Source text: as §1

panel of 442 kinases [12] = target: T12, panel of 442 kinases (Homo sapiens, UniProt Q9Y616)
T12 construct: purchased KINOMEscan
Source text: as §1

panel of 442 kinases [13] = target: T13, panel of 442 kinases (Homo sapiens, UniProt P36888, D835Y)
T13 construct: purchased KINOMEscan
Source text: as §1

panel of 442 kinases [14] = target: T14, panel of 442 kinases (Homo sapiens, UniProt Q00535)
T14 construct: purchased KINOMEscan
Source text: as §1

panel of 442 kinases [15] = target: T15, panel of 442 kinases (Homo sapiens, UniProt P32298)
T15 construct: purchased KINOMEscan
Source text: as §1

panel of 442 kinases [16] = target: T16, panel of 442 kinases (Homo sapiens, UniProt Q8N5S9)
T16 construct: purchased KINOMEscan
Source text: as §1

panel of 442 kinases [17] = target: T17, panel of 442 kinases (Homo sapiens, UniProt P00519, E255K)
T17 construct: purchased KINOMEscan
Source text: as §1

panel of 442 kinases [18] = target: T18, panel of 442 kinases (Homo sapiens, UniProt Q04771)
T18 construct: purchased KINOMEscan
Source text: as §1

panel of 442 kinases [19] = target: T19, panel of 442 kinases (Homo sapiens, UniProt Q9P289)
T19 construct: purchased KINOMEscan
Source text: as §1

panel of 442 kinases [20] = target: T20, panel of 442 kinases (Homo sapiens, UniProt Q14004)
T20 construct: purchased KINOMEscan
Source text: as §1

panel of 442 kinases [21] = target: T21, panel of 442 kinases (Homo sapiens, UniProt O43293)
T21 construct: purchased KINOMEscan
Source text: as §1

panel of 442 kinases [22] = target: T22, panel of 442 kinases (Homo sapiens, UniProt O95835)
T22 construct: purchased KINOMEscan
Source text: as §1

panel of 442 kinases [23] = target: T23, panel of 442 kinases (Homo sapiens, UniProt Q8TBX8)
T23 construct: purchased KINOMEscan
Source text: as §1

panel of 442 kinases [24] = target: T24, panel of 442 kinases (Homo sapiens, UniProt P31751)
T24 construct: purchased KINOMEscan
Source text: as §1

panel of 442 kinases [25] = target: T25, panel of 442 kinases (Homo sapiens, UniProt P51451)
T25 construct: purchased KINOMEscan
Source text: as §1

panel of 442 kinases [26] = target: T26, panel of 442 kinases (Homo sapiens, UniProt O75676)
T26 construct: purchased KINOMEscan
Source text: as §1

panel of 442 kinases [27] = target: T27, panel of 442 kinases (Homo sapiens, UniProt P00519, Q252H)
T27 construct: purchased KINOMEscan
Source text: as §1

panel of 442 kinases [28] = target: T28, panel of 442 kinases (Homo sapiens, UniProt O14920)
T28 construct: purchased KINOMEscan
Source text: as §1

panel of 442 kinases [29] = target: T29, panel of 442 kinases (Homo sapiens, UniProt Q13233)
T29 construct: purchased KINOMEscan
Source text: as §1

Compound: COc1cc(C(=O)N2CCC(N3CCN(C)CC3)CC2)ccc1Nc1ncc2c(n1)N1CCc3cccc(c31)C(=O)N2C [Compound 24]
- KINOMEscan: MAPKAPK5 (panel of 442 kinases [1]): 100
- KINOMEscan: JAK3(JH1domain-catalytic) (panel of 442 kinases [2]): 100
- KINOMEscan: MRCKB (panel of 442 kinases [3]): 100
- KINOMEscan: LKB1 (panel of 442 kinases [4]): 90
- KINOMEscan: ERBB2 (panel of 442 kinases [5]): 100
- KINOMEscan: FLT1 (panel of 442 kinases [6]): 100
- KINOMEscan: CSNK1A1 (panel of 442 kinases [7]): 100
- KINOMEscan: MERTK (panel of 442 kinases [8]): 100
- KINOMEscan: LCK (panel of 442 kinases [9]): 87
- KINOMEscan: PAK2 (panel of 442 kinases [10]): 90
- KINOMEscan: PIK3CA(E542K) (panel of 442 kinases [11]): 75
- KINOMEscan: IRAK3 (panel of 442 kinases [12]): 100
- KINOMEscan: FLT3(D835Y) (panel of 442 kinases [13]): 100
- KINOMEscan: CDK5 (panel of 442 kinases [14]): 100
- KINOMEscan: GRK4 (panel of 442 kinases [15]): 100
- KINOMEscan: CAMKK1 (panel of 442 kinases [16]): 77
- KINOMEscan: ABL1(E255K)-phosphorylated (panel of 442 kinases [17]): 82
- KINOMEscan: ACVR1 (panel of 442 kinases [18]): 100
- KINOMEscan: MST4 (panel of 442 kinases [19]): 100
- KINOMEscan: CDC2L5 (panel of 442 kinases [20]): 100
- KINOMEscan: DAPK3 (panel of 442 kinases [21]): 18
- KINOMEscan: LATS1 (panel of 442 kinases [22]): 100
- KINOMEscan: PIP5K2C (panel of 442 kinases [23]): 38
- KINOMEscan: AKT2 (panel of 442 kinases [24]): 100
- KINOMEscan: BLK (panel of 442 kinases [25]): 100
- KINOMEscan: RPS6KA4(Kin.Dom.1-N-terminal) (panel of 442 kinases [26]): 100
- KINOMEscan: ABL1(Q252H)-nonphosphorylated (panel of 442 kinases [27]): 81
- KINOMEscan: ABL1(Q252H)-phosphorylated (panel of 442 kinases [27]): 100
- KINOMEscan: IKK-beta (panel of 442 kinases [28]): 100
- KINOMEscan: MAP3K1 (panel of 442 kinases [29]): 100
